Data on 17 compounds can be found in PubChem BioAssay AID1645887 (National Center for Advancing Translational Sciences (NCATS), 2021).

The chains behind the UniProt entries cited, without tags or fusion partners. Where a name states a change or a piece, a line headed by the entry shows the natural chain unless it says otherwise.
UniProt Q8WZA2: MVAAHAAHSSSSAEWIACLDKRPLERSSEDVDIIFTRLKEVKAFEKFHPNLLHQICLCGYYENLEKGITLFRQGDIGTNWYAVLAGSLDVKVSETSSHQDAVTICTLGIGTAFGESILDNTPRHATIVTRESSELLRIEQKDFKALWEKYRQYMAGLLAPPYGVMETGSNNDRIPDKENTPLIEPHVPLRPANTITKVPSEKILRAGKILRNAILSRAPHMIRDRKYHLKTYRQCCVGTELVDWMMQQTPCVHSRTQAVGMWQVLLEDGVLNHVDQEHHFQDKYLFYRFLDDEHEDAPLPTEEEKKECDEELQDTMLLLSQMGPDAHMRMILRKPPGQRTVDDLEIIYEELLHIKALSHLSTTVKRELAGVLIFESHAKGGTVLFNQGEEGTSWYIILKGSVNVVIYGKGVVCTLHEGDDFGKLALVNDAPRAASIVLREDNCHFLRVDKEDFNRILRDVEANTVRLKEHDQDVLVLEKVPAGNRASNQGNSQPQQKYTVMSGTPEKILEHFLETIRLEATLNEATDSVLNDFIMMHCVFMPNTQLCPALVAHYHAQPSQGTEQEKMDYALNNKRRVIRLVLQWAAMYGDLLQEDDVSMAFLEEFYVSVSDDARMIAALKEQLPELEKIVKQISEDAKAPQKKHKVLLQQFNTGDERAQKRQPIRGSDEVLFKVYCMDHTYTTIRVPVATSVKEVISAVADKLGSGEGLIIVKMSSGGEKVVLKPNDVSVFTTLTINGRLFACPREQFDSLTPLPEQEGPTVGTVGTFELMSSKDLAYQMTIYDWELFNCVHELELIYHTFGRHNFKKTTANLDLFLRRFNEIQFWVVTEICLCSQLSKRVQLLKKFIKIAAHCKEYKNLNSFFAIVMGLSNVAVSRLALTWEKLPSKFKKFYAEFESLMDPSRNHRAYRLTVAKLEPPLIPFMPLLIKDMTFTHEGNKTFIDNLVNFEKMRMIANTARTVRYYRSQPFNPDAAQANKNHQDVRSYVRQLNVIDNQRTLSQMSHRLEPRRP

Values joined by “and” are separate entries in the source; they are usually repeats but may differ in a detail not shown here. Identical values can stand only once. The entries are a selection whose mix differs from that of the whole data set. Active and inactive are the calls of the source. Calls come from the whole dose curve; as a rule, active = well fitted activation curve with a large enough effect; inconclusive = small, poorly fitted or top-dose-only effect, or another doubt; inactive = no such curve, though single readings can be large or run the other way.
% is set by controls: 0 for no effect and ±100 for the full control effect.

The assay deals with Rap guanine nucleotide exchange factor 4 (Homo sapiens) (UniProt Q8WZA2). The assay is described as follows: Validation qHTS for agonist of cAMP-regulated guanine nucleotide exchange factor 4 (EPAC2).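 Note: exchange makes BODIPY-GDP fluorescence drop when released from Rap1B; series mostly up to about 150 µM.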 The following applies: EPAC2 Rap1B BODIPY-GDP exchange, fluorescence; hits give high values. The text has this: Principle Investigator: Xiaodong Cheng Ph.D.
The University of Texas Medical Branch, […], TX
In multi-cellular eukaryotic organisms, the effects of cAMP are transduced by two ubiquitously-expressed intracellular cAMP receptors, the classic protein kinase A/cAMP-dependent protein kinase (PKA/cAPK) and the more recently discovered exchange protein directly activated by cAMP/cAMP-regulated guanine nucleotide exchange factor (EPAC/cAMP-GEF). Both PKA and EPAC are ubiquitously expressed in all tissues, and an increase in intracellular cAMP levels will lead to the activation of both PKA and EPAC. Therefore, careful dissections of the individual role and relative contribution of EPAC and PKA within the overall cAMP signaling in various model systems are critical for further elucidating the mechanism of cAMP signaling. To date no EPAC-specific antagonists and agonist, as well as isoform-specific agonists have been reported, and developing EPAC-specific pharmacological probes to determine the physiological functions that EPAC play in the overall cAMP-mediated signaling remains a major challenge within the research field. Furthermore, identified regulators of EPAC may lead to new mechanism-based therapeutic strategies specifically targeting the EPAC / cAMP-signaling components as EPAC has been implicated to play important roles in major human pathological conditions such as diabetes, heart disease, and cancer.
This qHTS will be used to screen the Molecular Libraries Small Molecule Repository (MLSMR) as a concentration-titration series using the NCGC unique quantitative screening (qHTS) platform to find activators for EPAC1. In addition, this assay will also be used as a counterscreen for the EPAC2 qHTS. This fluorescent based assay is developed and validated for EPAC1 that measures exchange using EPAC effector Rap1 complex with BODIPY-GDP, a GDP analog with a tethered fluorophores. Activators are identified by monitoring the change in fluorescence signal as the exchanged free BODIPY-GDP has a reduced fluorescence compared to Rap1-bound BODIPY-GDP. Increase in signal (activation) is the desired outcome for the EPAC1 agonist while no activity in this assay is desired for the EPAC2 agonist counterscreen.
[1] de Rooij, J., Zwartkruis, F. J., Verheijen, M. H., Cool, R. H., Nijman, S. M., Wittinghofer, A., and Bos, J.L. (1998) Nature 396, 474-477.
Briefly, three uL of reagents (100 nM EPAC2, 250 nM RAP1B-BODIPY-GDP, 50 uM GDP) were dispensed into a 1536-well Greiner black solid-bottom medium binding assay plate. Controls and test compounds (23 nL) were transferred to the plate via a Kalypsys pin tool equipped with a 1536-pin array. The plates were centrifuged at 1,000 rpm for 15 seconds followed by 5 minute incubation at room temperature. The assay plates were read at 5 minute intervals for 30 minutes in the ViewLux plate reader using 480nm excitation and 540nm emission filters. The results were normalized to the agonist positive control of 6.5 mM cAMP.
For the compound `CN(C(=O)Cc1ccccc1)[C@H]1CC[C@@]2(CCCO2)C[C@@H]1N1CCCC1`, the activation was inactive: 5.37%.

As for `Cc1cc([N+](=O)[O-])cc([N+](=O)[O-])c1O`, the activation is inactive: -5.48%.

Turning to `COc1cccc([N+](=O)[O-])c1[N+](=O)[O-]`, the activation was inactive: -12.9%.

Take `O=[N+]([O-])c1cc([N+](=O)[O-])c2nc[nH]c2c1`: the activation is inactive: -19.2%.

With `O=C(OC1CN2CCC1CC2)c1ccccc1` (configuration not stated), the activation was inactive: 6.98%.

In the case of `CN(C(=O)Cc1ccc(Cl)c(Cl)c1)[C@@H]1CCCC[C@@H]1N1CCCC1`, the activation is inactive: 5.13%.

Regarding `Nc1c(O)cc([N+](=O)[O-])cc1[N+](=O)[O-]`, the activation was inactive: -28.8%.

Consider `CCNC(C)Cc1ccc2c(c1)OCO2` (configuration not stated), for which the activation is inactive: -11.8%.

For the compound `COc1cc([N+](=O)[O-])c([N+](=O)[O-])cc1OC`, the activation was inactive: -26.8%.

In the case of `CC(=O)C1=CCCC2CCC1N2` (configuration not stated), the activation is inactive: 4.08%.

As for `Cc1cc(C=O)ccc1N(CCCl)CCCl`, the activation is inactive: -15.4%.

As for `CN(C(=O)Cc1ccc(Cl)c(Cl)c1)[C@H]1CC[C@@]2(CCCO2)C[C@@H]1N1CCCC1`, the activation is inactive: 1.35%.

For the compound `CN(C(=O)Cc1ccccc1)[C@@H]1CC[C@]2(CCCO2)C[C@H]1N1CCCC1`, the activation is inactive: 16.6%.

`NC(=O)Nc1ccc([As](=O)(O)O)cc1`: the activation is inactive: -14.2%.

In the case of `CN(C(=O)Cc1ccc(Cl)c(Cl)c1)[C@@H]1CC[C@]2(CCCO2)C[C@H]1N1CCCC1`, the activation was inactive: -17%.

On to `CN(CCCl)Cc1cc(Cl)c(NC2=NCCN2)c(Cl)c1`, for which the activation was inactive: -3.61% and inactive: -16.4%.

For the compound `CN(C(=O)Cc1ccc(Cl)c(Cl)c1)[C@@H]1CCCC[C@H]1N1CCCC1`, the activation is inactive: 6.19%.
